{"source": "patent US8592464B2", "about": "“Nitric oxide furoxan derivative compounds endowed with antitumoral activity” (Humanitas Mirasole S.p.A., priority 2009, dated 2013)", "system": "cytolytic activity of CD8+ T cells against allogenic (MBL-2) target cells", "assay": "Chromium release assay (in vitro cytotoxicity), B6+C26GM culture: immunosuppressed splenocytes from tumor-bearing mice", "assay_type": "cell-based", "data": [{"smiles": "[O-][n+]1onc2c3no[n+]([O-])c3ccc21", "values": [{"measurement": "Range of concentration to rescue cytolytic activity", "value": 1.25, "unit": "µg/mL"}]}]}
